Apparent affinities of Ab-95 variants for a coronavirus HR2 peptide

Source: Engelhart et al. 2022 (doi:10.1038/s41597-022-01779-4), MIT Lincoln Laboratory and A-Alpha Bio; data file from the FLAb repository.

The target is the same throughout: PDVDLGDISGINAS, from the HR2 region of SARS-CoV-2 spike.

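The starting antibody came from a phage panning campaign against this peptide. The library (AAYL52) carries one to three amino acid substitutions per variant, with no insertions or deletions. AlphaSeq pools MATa yeast showing the antibodies with MATalpha yeast showing the peptide. The frequency of each diploid, read from paired DNA barcodes, reflects how well the two displayed proteins bind. A regression on co-assayed BCL2-family reference pairs converts the normalised counts of each replicate to an apparent Kd. Each pool was mated in three replicate cultures.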

The variants keep the heavy chain, the linker and the frameworks of Ab-95 (scFv order VH, a (GGGGS)3 linker, VL).
VH: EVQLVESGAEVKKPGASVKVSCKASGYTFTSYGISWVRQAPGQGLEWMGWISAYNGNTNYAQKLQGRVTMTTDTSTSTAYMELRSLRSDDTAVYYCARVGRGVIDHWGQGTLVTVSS
VL: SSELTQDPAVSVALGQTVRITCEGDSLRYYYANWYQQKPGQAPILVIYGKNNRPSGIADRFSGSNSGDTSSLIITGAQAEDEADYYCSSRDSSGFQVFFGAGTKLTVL

Substitutions are numbered in sequence along the VL above, starting at 1 (not Kabat).
The read-out is the apparent dissociation constant on a log10 scale (nM): the lower, the stronger.
Where no diploid with the target was found in that replicate, the entry reads "nd": below detection, most likely a poor binder, though not proof of it.
Three control strains display no target. For library AAYL52, 28% of the pairings with them gave a signal, with a median of 3.91 and one signal in twenty below 2.90, so weak values seen in few replicates may be background. The control count says in how many pairings with the empty strains this scFv gave a signal, with their mean in brackets.

| # | changes | log10 Kd, replicates | control signals |
|---|---|---|---|
| 1 | Y30N N52D R90S | 0.85 0.80 0.14 | 0/9 |
| 2 | Y30A G49N N51D | 1.55 1.68 1.31 | 2/9 (4.46) |
| 3 | E23F S55P D91Y | 3.77 3.86 3.23 | 4/9 (3.77) |
| 4 | N52F D91V F98A | 2.50 nd 3.35 | 4/9 (4.08) |
| 5 | Y31C G94Y F95R | 1.59 1.52 1.25 | 1/9 (3.58) |
| 6 | D25P S55D F98H | 2.03 1.95 2.11 | 2/9 (3.02) |
| 7 | D25M Y31F F98S | 3.50 3.36 3.04 | 0/9 |
| 8 | R28I Y30T D91M | nd 3.38 nd | 5/9 (4.35) |
| 9 | G24E R28L | 2.74 3.17 2.97 | 3/9 (4.19) |
| 10 | N51S S92I V97D | 2.49 2.60 1.55 | 3/9 (3.76) |
| 11 | N33Y G94V | 4.69 nd nd | 2/9 (4.32) |
| 12 | A32F P54V S93I | 4.25 4.09 3.44 | 3/9 (3.85) |
| 13 | D25H A32W F95M | 4.10 3.76 nd | 3/9 (4.22) |
| 14 | Y31Q A32Q S93G | 5.07 3.49 3.91 | 5/9 (3.54) |
| 15 | L27N N33P S89N | nd nd nd | 0/9 |
| 16 | R90C | 2.74 2.50 2.26 | 1/9 (3.52) |
| 17 | R53Q S55I F98S | 4.18 4.34 nd | 3/9 (4.44) |
| 18 | L27D N52G Q96I | nd nd nd | 1/9 (3.74) |
| 19 | A32Y K50N S89R | 2.75 2.70 2.47 | 3/9 (4.20) |
| 20 | E23A S26C R28A | 3.54 2.82 2.70 | 2/9 (4.39) |
| 21 | Y31K A32E N33Y | 3.91 4.34 3.74 | 3/9 (3.68) |
| 22 | N33D R90T F95P | 3.85 4.05 4.13 | 7/9 (3.62) |
| 23 | R28P S93V F95T | 2.56 2.13 1.94 | 3/9 (3.93) |
| 24 | S55N S93W F95V | 2.64 2.54 1.49 | 7/9 (3.84) |
| 25 | G24L G49R S92V | 3.69 5.41 4.37 | 1/9 (2.80) |
| 26 | S55R S92T F98N | 3.52 nd nd | 3/9 (3.70) |
| 27 | R28D Y29V N52R | 3.19 2.89 2.94 | 5/9 (4.04) |
| 28 | Y30R Y31C R90Y | 2.26 2.88 1.83 | 1/9 (2.68) |
| 29 | S26N P54T S55F | nd 4.05 4.64 | 5/9 (3.94) |
| 30 | S89E R90D D91F | nd nd nd | 2/9 (3.41) |
| 31 | P54C R90T | 3.68 3.24 3.44 | 2/9 (3.09) |
| 32 | A32T K50W Q96K | 2.64 2.69 2.40 | 7/9 (3.61) |
| 33 | N51D S93P V97P | nd nd nd | 2/9 (3.59) |
| 34 | G49A K50D R53A | nd nd nd | 1/9 (4.23) |
| 35 | G24F Y31R | 4.42 5.56 3.49 | 2/9 (4.23) |
| 36 | N52Q R53F V97D | nd nd nd | 2/9 (3.28) |
| 37 | L27W S92W | 3.97 3.08 3.19 | 2/9 (3.72) |